Legend:
[1] = biological target: CDK9/cyclin T1 (Homo sapiens, UniProt P50750); test: Inhibition of CDK9/Cyclin-T1 (unknown origin) using UlightCFFKNIVTPRTPPPSQGK-amide substrate after 90 mins by […]; type: protein-complex assay
[2] = test system: A549; test: Antiproliferative activity against human A549 cells after 3 days by SRB method; type: functional; conditions: A549, 72 h
How it was run: (§1)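 Cell lines kept in RPMI-1640 with 25 mM HEPES, 0.25% sodium bicarbonate, 10% FBS and kanamycin. Freshly trypsinized cells seeded at 1500–7500 per well with compound added from DMSO-diluted stock. After 3 days, attached cells fixed with cold 50% TCA, stained with 0.4% SRB, and bound dye solubilized. Absorbance read at 562 nm. Value is the mean of three independent determinations.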

By UniProt entry, the sequences of proteins in these tests, tags left out.
UniProt P50750, whole entry: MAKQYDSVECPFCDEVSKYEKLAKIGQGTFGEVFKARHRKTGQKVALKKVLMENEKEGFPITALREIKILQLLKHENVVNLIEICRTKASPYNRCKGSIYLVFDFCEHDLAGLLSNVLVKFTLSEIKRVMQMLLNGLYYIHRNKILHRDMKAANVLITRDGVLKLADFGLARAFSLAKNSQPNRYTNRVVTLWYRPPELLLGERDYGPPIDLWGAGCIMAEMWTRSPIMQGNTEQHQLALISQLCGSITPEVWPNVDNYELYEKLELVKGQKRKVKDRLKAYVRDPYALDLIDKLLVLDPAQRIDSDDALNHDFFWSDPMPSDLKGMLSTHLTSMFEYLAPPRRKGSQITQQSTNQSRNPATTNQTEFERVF

[3] = Antiproliferative activity against human DU145 cells after 3 days by SRB method; type: functional; conditions: DU-145, 72 h; how it was run: as §1
[4] = Antiproliferative activity against human KBVIN cells after 3 days by SRB method; type: functional; conditions: 72 h; how it was run: as §1
[5] = biological target: Cyclin-dependent kinase 2/cyclin E1 (Homo sapiens, UniProt P24941); test: Inhibition of CDK2/cyclin E1 (unknown origin) expressed in Sf9 insect cells using UlightCFFKNIVTPRTPPPSQGK-amide substrate after 15 mins by […]

CN(C)CC(=O)Nc1cccc(Nc2ncc(F)c(Nc3ccc(F)cc3)n2)c1
IC50 [1]: 780 nM
GI50 [2]: 1180 nM
GI50 [3]: 1210 nM
GI50 [4]: 1810 nM
IC50 [5]: 1710 nM

Source: ChEMBL document CHEMBL3734696, “Discovery of novel 5-fluoro-N(2),N(4)-diphenylpyrimidine-2,4-diamines as potent inhibitors against CDK2 and CDK9” (Medchemcomm, 2015)
